Biological target: T1, acyl CoA: cholesterol acyltransferase (ACAT-EC 2.3.1.26) (Oryctolagus cuniculus, UniProt A0A5F9CPP4)
T1 construct: microsomal preparations from atherosclerotic rabbit thoracic aorta (intimamedia); from tissue; host or cells: microsomes of atherosclerotic rabbit thoracic aorta (intima-media)
T1 sequence (A0A5F9CPP4 1-555): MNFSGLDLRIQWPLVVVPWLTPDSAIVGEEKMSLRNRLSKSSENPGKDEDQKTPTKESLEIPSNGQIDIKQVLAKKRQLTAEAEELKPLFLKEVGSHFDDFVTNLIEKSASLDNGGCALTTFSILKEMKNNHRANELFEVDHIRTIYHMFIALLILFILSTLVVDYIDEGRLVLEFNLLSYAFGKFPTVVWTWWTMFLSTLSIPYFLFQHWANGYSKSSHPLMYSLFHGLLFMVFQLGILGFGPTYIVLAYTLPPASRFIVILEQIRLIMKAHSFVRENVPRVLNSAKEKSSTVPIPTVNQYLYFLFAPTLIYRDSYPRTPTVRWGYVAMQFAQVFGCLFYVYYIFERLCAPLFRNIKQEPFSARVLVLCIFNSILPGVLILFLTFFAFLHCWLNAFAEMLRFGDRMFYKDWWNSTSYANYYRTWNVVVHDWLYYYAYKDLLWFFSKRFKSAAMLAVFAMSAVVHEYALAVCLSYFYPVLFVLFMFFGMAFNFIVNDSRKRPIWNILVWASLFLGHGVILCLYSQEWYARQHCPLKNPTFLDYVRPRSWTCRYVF
Assay: ACAT inhibition in microsomes from atherosclerotic rabbit thoracic aortas (Table 2)
Assay type: biochemical

`CC(C)(Oc1ccc(CCNC(=O)c2ccc(Cl)cc2)cc1)C(=O)O` [Bezafibrate, reference compound] showed an IC50 of 513 µM.

Source: US4985440A, “Hypolipidaemic imidazol-2-yl-derivatives of bicyclic compounds” (priority 1988, dated 1991)
